Experiments:
EGFR-L858R [1] = target: T1, EGFR-L858R (Homo sapiens, UniProt P00533, L858R); assay: Kinetic characterization (Ki, kinact), EGFR-L858R
EGFR-wt [2] = target: T2, EGFR-wt (Homo sapiens, UniProt P00533); assay: HTRF KinEASE-TK activity-based assay, EGFR-wt; settings: ATP at Km (9.5 µM), 30 min preincubation, mean ± SD of three independent measurements in duplicates
EGFR-L858R/T790M [3] = target: T3, EGFR-L858R/T790M (Homo sapiens, UniProt P00533, L858R/T790M); assay: HTRF KinEASE-TK activity-based assay, EGFR-L858R/T790M; settings: ATP at Km (4 µM), 30 min preincubation, mean ± SD of three independent measurements in duplicates
EGFR-wt [4] = target: T2, EGFR-wt; assay: Kinetic characterization (Ki, kinact), EGFR-wt
EGFR-L858R [5] = target: T1, EGFR-L858R; assay: HTRF KinEASE-TK activity-based assay, EGFR-L858R
EGFR-L858R/T790M [6] = target: T3, EGFR-L858R/T790M; assay: Kinetic characterization (Ki, kinact), EGFR-L858R/T790M

By UniProt entry, the sequences of proteins in these tests, tags left out. Residues count along the entry.
UniProt P00533, 25-1210 L858R: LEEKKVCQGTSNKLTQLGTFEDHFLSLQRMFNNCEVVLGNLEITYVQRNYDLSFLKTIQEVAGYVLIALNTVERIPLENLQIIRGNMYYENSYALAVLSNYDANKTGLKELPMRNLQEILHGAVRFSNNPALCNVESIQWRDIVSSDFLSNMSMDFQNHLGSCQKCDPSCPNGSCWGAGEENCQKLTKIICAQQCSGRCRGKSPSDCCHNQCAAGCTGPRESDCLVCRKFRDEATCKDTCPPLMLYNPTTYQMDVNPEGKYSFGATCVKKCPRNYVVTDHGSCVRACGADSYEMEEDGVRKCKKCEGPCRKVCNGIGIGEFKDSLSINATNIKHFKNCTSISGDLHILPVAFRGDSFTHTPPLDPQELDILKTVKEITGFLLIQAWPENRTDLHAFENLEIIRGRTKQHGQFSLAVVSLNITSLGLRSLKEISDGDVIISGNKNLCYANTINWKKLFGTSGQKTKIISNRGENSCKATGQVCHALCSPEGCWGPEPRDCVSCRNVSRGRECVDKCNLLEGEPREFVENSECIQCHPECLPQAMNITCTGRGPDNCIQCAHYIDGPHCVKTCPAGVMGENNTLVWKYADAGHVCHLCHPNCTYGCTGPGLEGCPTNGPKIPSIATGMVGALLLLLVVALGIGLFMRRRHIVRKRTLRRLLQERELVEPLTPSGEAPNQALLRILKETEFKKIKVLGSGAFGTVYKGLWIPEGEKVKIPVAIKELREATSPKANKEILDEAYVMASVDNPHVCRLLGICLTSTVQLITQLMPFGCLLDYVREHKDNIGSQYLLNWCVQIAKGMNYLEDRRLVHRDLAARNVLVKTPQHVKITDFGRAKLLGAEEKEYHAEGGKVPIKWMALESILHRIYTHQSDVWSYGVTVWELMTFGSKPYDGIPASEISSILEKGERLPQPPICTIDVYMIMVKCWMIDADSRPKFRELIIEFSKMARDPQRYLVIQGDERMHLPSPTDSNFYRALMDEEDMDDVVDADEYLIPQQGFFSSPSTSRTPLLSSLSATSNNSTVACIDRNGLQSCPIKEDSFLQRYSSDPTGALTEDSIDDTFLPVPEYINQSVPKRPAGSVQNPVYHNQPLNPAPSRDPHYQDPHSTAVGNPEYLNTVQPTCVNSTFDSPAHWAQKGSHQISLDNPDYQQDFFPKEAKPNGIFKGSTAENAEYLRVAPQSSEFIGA
UniProt P00533, 25-1210: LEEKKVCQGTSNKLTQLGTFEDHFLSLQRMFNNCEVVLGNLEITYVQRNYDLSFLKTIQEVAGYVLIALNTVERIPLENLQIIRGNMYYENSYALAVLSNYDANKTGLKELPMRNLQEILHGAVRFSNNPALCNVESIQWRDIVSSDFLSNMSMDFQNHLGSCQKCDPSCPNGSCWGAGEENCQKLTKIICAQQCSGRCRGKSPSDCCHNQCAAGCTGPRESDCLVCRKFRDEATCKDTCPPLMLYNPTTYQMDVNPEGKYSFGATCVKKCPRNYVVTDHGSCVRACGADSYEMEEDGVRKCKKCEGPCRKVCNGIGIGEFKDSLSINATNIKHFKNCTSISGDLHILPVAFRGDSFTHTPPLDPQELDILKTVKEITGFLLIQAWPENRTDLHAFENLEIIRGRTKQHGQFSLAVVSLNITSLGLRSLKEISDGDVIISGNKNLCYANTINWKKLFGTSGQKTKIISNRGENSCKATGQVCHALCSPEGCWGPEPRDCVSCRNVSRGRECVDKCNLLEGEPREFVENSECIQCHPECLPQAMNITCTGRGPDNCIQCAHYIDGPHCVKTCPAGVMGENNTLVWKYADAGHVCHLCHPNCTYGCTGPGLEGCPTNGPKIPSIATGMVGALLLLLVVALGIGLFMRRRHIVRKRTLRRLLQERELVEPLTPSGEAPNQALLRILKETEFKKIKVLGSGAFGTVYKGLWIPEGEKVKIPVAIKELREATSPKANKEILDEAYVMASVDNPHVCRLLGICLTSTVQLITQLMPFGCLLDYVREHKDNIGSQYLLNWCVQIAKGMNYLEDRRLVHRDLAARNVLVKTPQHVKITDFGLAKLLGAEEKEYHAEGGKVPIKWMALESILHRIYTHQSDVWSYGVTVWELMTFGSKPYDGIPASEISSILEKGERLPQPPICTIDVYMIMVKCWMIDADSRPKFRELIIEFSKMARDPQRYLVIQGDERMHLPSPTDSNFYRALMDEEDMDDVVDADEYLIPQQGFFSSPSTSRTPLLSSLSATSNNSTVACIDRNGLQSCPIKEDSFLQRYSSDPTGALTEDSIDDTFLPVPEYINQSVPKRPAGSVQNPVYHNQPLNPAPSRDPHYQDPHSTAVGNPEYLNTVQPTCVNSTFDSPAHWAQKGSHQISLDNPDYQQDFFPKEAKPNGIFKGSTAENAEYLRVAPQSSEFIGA
UniProt P00533, 25-1210 T790M/L858R: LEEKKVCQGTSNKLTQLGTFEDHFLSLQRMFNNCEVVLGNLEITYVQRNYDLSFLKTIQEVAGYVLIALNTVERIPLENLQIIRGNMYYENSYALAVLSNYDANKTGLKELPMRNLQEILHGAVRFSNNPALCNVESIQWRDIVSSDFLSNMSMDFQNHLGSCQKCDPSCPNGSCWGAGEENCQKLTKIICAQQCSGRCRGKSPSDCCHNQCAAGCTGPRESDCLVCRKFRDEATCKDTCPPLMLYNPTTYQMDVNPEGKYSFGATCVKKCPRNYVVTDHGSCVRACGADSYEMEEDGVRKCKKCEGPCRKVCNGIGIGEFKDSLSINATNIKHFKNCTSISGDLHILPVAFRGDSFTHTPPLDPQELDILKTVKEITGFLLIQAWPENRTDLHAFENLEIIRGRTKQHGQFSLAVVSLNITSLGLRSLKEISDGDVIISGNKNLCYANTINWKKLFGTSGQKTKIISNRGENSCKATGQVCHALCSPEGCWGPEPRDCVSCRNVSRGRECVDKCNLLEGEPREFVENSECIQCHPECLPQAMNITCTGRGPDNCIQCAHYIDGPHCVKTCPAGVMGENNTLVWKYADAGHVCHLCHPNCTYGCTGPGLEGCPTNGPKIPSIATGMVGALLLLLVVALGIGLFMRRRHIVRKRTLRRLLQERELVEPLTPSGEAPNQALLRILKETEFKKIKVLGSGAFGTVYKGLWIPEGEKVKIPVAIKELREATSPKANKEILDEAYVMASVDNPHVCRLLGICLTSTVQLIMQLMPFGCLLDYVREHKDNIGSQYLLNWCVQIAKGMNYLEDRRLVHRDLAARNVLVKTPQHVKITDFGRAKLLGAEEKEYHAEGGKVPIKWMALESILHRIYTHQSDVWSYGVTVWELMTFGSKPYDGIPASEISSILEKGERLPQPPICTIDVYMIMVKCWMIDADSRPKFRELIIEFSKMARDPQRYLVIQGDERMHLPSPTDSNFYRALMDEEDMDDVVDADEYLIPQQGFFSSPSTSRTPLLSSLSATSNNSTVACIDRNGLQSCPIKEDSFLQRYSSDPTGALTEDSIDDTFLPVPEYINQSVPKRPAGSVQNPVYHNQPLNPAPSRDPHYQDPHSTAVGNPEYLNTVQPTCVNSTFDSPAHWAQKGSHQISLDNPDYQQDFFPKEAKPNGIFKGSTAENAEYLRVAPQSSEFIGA

Ki (EGFR-L858R [1]): 10 ± 2.7 nM
IC50 (EGFR-wt [2]): 1.7 ± 0.8 nM
IC50 (EGFR-L858R/T790M [3]): 0.3 ± 0.1 nM
Ki (EGFR-wt [4]): 25 ± 7.8 nM
IC50 (EGFR-L858R [5]): 0.6 ± 0.3 nM
Ki (EGFR-L858R/T790M [6]): 7.7 ± 2.3 nM
SMILES: Cc1cc(C(=O)Nc2nc3cccc(Cl)c3n2[C@@H]2CCCCN(C(=O)/C=C/CN(C)C)C2)ccn1 [EGF816, nazartinib, reference compound]

From article PMC6886544
